Laboratory results taken from publication PMC7136958, “Targeting the pregnane X receptor using microbial metabolite mimicry” (EMBO Molecular Medicine, 2020).
Several values for one entry are separate records, joined by “and”; a condition that tells them apart may be missing. Equal entries are not always repeated.

Assays:
[1] = system: mutant PXR.1 (C285I/C301A); assay: PXR luciferase reporter assay in HEK293T cells, mutant PXR.1; format: cell-based, human; details: 10 μM, replicate wells, listed as RIF
NF-κB [2] = assay: TNF-α-induced NF-κB reporter assay in LS174T PXR-KO cells; details: for NFkB NanoLuc luminescence, aver: LS174T PXR-KO, EXP3
NF-κB [3] = assay: TNF-α-induced NF-κB reporter assay in LS180 cells with or without PXR co-transfection
[4] = NFkB transfected LS180 cells, 8th pass, EXP1, 10 uM + TNFa 5 ng/ml
[5] = NFkB transfected LS180 cells, 13th pass, EXP2, 10 uM + TNFa 5 ng/ml
[6] = NFkB+PXR transfected LS180 cells, 8th pass, EXP1, 10 uM + TNFa 5 ng/ml
[7] = NFkB+PXR transfected LS180 cells, 13th pass, EXP2, 10 uM + TNFa 5 ng/ml

## CO[C@H]1/C=C/O[C@@]2(C)Oc3c(C)c(O)c4c(O)c(c(/C=N/N5CCN(C)CC5)c(O)c4c3C2=O)NC(=O)/C(C)=C\C=C\[C@H](C)[C@H](O)[C@@H](C)[C@@H](O)[C@@H](C)[C@H](OC(C)=O)[C@@H]1C [Rifampicin, reference compound]
[1]
  PXR reporter activity, RLU/B-Gal: 36487.3 RLU/B-Gal and 30301.7 RLU/B-Gal and 31078.1 RLU/B-Gal
NF-κB [2]; 10 μM + TNFα 5 ng/ml
  NFkB NanoLuc luminescence, aver: 52239.7
NF-κB [2]; 10 uM, no TNFα
  NFkB NanoLuc luminescence, aver: 265.7
NF-κB [2]; TNF-exposed PXR-KO cells
  NF-κB reporter activity: neither rifampicin nor FKK6 repressed
NF-κB [3]; [4]
  NFkB reporter luminescence, aver: 114193.5
  NFkB reporter, % max: 116.3%
NF-κB [3]; NFkB transfected LS180 cells, 8th pass, EXP1, 10 uM, no TNFα
  NFkB reporter luminescence, aver: 1111.8
NF-κB [3]; [5]
  NFkB reporter luminescence, aver: 77480.5
  NFkB reporter, % max: 79.0%
NF-κB [3]; NFkB transfected LS180 cells, 13th pass, EXP2, 10 uM, no TNFα
  NFkB reporter luminescence, aver: 528.5
NF-κB [3]; [6]
  NFkB reporter luminescence, aver: 60512.0
  NFkB reporter, % max: 69.8%
NF-κB [3]; NFkB+PXR transfected LS180 cells, 8th pass, EXP1, 10 uM, no TNFα
  NFkB reporter luminescence, aver: 1540.5
NF-κB [3]; [7]
  NFkB reporter luminescence, aver: 25990.0
  NFkB reporter, % max: 46.3%
NF-κB [3]; NFkB+PXR transfected LS180 cells, 13th pass, EXP2, 10 uM, no TNFα
  NFkB reporter luminescence, aver: 557.0
